This experiment has as its target MMP-8 (Homo sapiens (Human), UniProt P22894). In words: Enzyme inhibition studies, MMP-8 catalytic domain. The format is biochemical. The conditions noted are these: linear noncompetitive or linear competitive mechanism as footnoted.

The chains behind the UniProt entries cited, without tags or fusion partners. Residues count along the entry.
UniProt P22894, 100-262: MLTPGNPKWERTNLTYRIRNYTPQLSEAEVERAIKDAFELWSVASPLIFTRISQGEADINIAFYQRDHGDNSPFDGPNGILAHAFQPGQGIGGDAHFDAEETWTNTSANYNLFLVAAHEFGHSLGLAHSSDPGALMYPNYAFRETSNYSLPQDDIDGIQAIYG

As for `N=C(N)Nc1ccc(Oc2ccc(S(=O)(=O)CC3CS3)cc2)cc1` (stereo not shown), the affinity, expressed as Ki, was 730 nM.
